Binding of CDR-mutated scFvs to a peptide of the spike HR2 region

Target: peptide PDVDLGDISGINAS, taken from heptad repeat 2 (HR2) of SARS-CoV-2 spike.

Parent: Ab-91, a human scFv built as VL, a (GGGGS)3 linker, VH. Only the CDRs of the heavy chain vary.
VL: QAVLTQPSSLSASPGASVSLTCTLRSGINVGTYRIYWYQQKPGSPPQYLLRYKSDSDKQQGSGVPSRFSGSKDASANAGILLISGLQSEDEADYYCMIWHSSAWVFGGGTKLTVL
VH: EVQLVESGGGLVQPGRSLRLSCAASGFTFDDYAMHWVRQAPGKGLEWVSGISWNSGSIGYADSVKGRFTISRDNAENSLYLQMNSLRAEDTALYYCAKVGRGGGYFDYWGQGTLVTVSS

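The starting antibody came from a phage panning campaign against this peptide. In library AAYL51, one, two or three CDR residues were substituted; doubles and triples were drawn at random. The scFvs were displayed on barcoded MATa yeast, the peptide on MATalpha yeast. Binding brings cells together so that they mate, and sequencing counts the barcode pairs among the diploids. Scores were corrected for input abundance and mapped to Kd with protein pairs of known affinity run in the same pool. There are three technical replicates.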

The parent's heavy chain CDRs are GFTFDDYAMH, GISWNSGSIGYADSVK, VGRGGGYFDY; each variant's own CDRs replace them letter for letter. Scale: log10 of Kd in nM, estimated from mating counts; low values are strong binders. A mean of the replicates is given; it leaves out those without a signal. A pair that was not seen in that replicate is written "nd"; this usually means weak binding, but a binder can also be missed. Background: pairings of library AAYL51 with three empty control strains gave a value in 21% of cases (median 4.54, 5th percentile 3.26). Values in that range, when seen in few replicates, are hard to tell from nonspecific mating. The control count says in how many pairings with the empty strains this scFv gave a signal, with their mean in brackets. In this assay the parent's reference entry averaged 1.86; its copy inside this library read 0.88.

| CDR-H1 | CDR-H2 | CDR-H3 | log10 Kd, replicates | mean, log10 nM | empty controls |
|---|---|---|---|---|---|
| GFTFDDYAMG | GTSWNSGSIGYYDSVK | VGRGGGYFDY | 5.43 4.87 nd | 5.15 | 4 of 9 (4.22) |
| GFTFDDYAMH | GISWNSGSIGYALAVK | IGRGGGYFDY | 1.97 1.91 2.04 | 1.97 | 3 of 9 (4.42) |
| GFTFDDYAMH | GISWNQGSCGYADSVK | VGRGGWYFDY | nd nd nd | nd | 2 of 9 (4.85) |
| GFTFDDYAMH | GIQWNSGSIGYADQVK | VGRGGGLFDY | nd nd nd | nd | 0 of 9 |
| GFTFDDYAMH | GISLNANSIGYADSVK | VGRGGGYFDY | 2.60 2.68 2.50 | 2.59 | 6 of 9 (4.89) |
| GFTFDDYAMH | GILWNSGSIGYADSVK | VGRDGGAFDY | nd 5.98 nd | 5.98 | 3 of 9 (4.64) |
| GFTKDDYAMH | GISWNSGSIGYADSGK | PGRGGGYFDY | 4.57 nd nd | 4.57 | 2 of 9 (5.17) |
| GFTFDDYAMH | GISWNSGKIGYADSVK | VGRRGGYFQY | nd 5.94 nd | 5.94 | 1 of 9 (3.98) |
| GFTFDDYAHH | GISWNSGSIGYADSVK | VGRWGGNFDY | nd 4.90 nd | 4.90 | 4 of 9 (3.74) |
| GFTRDDYAMH | GMSWNSGSIGYADSVK | VGRGGGYFMY | nd nd nd | nd | 1 of 9 (3.24) |
| GFTFDDYAFW | GISWNSGSIGYADSVK | VGRGGGYFHY | nd 5.68 nd | 5.68 | 6 of 9 (4.83) |
| GFTFDDYAMH | YISWNSGEIGYADSVE | VGRGGGYFDY | nd nd nd | nd | 0 of 9 |
| GFTFDDYAMH | GISWNSGCIGYADSVK | VGRGGGCIDY | 4.33 nd nd | 4.33 | 5 of 9 (5.01) |
| GFTFDQYAMH | GISWNSGSIGYADQVK | VGRGGYYFDY | nd nd nd | nd | 0 of 9 |
| GFTFDDYAMH | GISWASGSIGYADSKK | VGRQGGYFDY | nd nd nd | nd | 0 of 9 |
| GFTFSDYAMH | GICWNSGSIGYARSVK | VGRGGGYFDY | 5.53 5.51 5.12 | 5.38 | 2 of 9 (4.71) |
| GFTFDDYPMH | GISWNSGSIRYADPVK | VGRGGGYFDY | 5.28 6.73 nd | 6.01 | 3 of 9 (5.04) |
| GFTFDDYAMH | GISWNSGSIGYADSVK | VGMGGGYFDY | 1.71 2.07 1.58 | 1.79 | 1 of 9 (5.68) |
| GFTFDDYAMH | RISWNSGSIGYADSMK | VGRGGGYFDY | nd nd nd | nd | 0 of 9 |
| GFTFDDYAMH | SISHNSGSIGYADSVK | VGRGGGYFEY | nd nd nd | nd | 0 of 9 |
| GWTFDDYARH | GISWNSGSIGYADSVK | VGRGGGYFDA | nd nd nd | nd | 1 of 9 (4.81) |
| GFTFDDYAMH | GISWNSGSIGYADSVK | VCRGGGYFDY | 4.04 nd nd | 4.04 | 5 of 9 (4.71) |
| GFTFDMYQMH | GISWNSGSIGYADSVK | VDRGGGYFDY | nd nd 3.91 | 3.91 | 0 of 9 |
| GFTFDDYAMH | GISWNPGDIGYADSVK | VGRGGGYFDR | nd 3.77 nd | 3.77 | 1 of 9 (4.03) |
| MFTFDDYAMH | GISWNSGSIGYADSMK | VNRGGGYFDY | 4.13 nd nd | 4.13 | 0 of 9 |
| GFTFDDYAMH | GISWNSGSITYLDSVK | VGRGGGKFDY | nd nd nd | nd | 0 of 9 |
| GFTFDDYAMW | GISWNSGTNGYADSVK | VGRGGGYFDY | 4.40 nd nd | 4.40 | 1 of 9 (3.90) |
| GWTFDDYAMH | GISWNSGSIGYADSVK | VGREEGYFDY | nd nd nd | nd | 0 of 9 |
| LFYFDDYAMH | GISWNSGSIGYAVSVK | VGRGGGYFDY | 4.84 4.34 4.69 | 4.62 | 5 of 9 (4.47) |
| GFTFDPYAMH | GISWNSGSIGYADSVK | HMRGGGYFDY | 4.94 4.24 4.99 | 4.72 | 3 of 9 (5.16) |
| GFTFDDYAMH | GISWNSGSIGYWDSVF | VGRGWGYFDY | nd nd nd | nd | 1 of 9 (3.06) |

Top 5 of the variants detected in all replicates, tightest first:

| CDR-H1 | CDR-H2 | CDR-H3 | log10 Kd, replicates | mean, log10 nM | empty controls |
|---|---|---|---|---|---|
| GFTFDDYAMH | GISWNSGSIGYADSVK | VGMGGGYFDY | 1.71 2.07 1.58 | 1.79 | 1 of 9 (5.68) |
| GFTFDDYAMH | GISWNSGSIGYALAVK | IGRGGGYFDY | 1.97 1.91 2.04 | 1.97 | 3 of 9 (4.42) |
| GFTFDDYAMH | GISLNANSIGYADSVK | VGRGGGYFDY | 2.60 2.68 2.50 | 2.59 | 6 of 9 (4.89) |
| LFYFDDYAMH | GISWNSGSIGYAVSVK | VGRGGGYFDY | 4.84 4.34 4.69 | 4.62 | 5 of 9 (4.47) |
| GFTFDPYAMH | GISWNSGSIGYADSVK | HMRGGGYFDY | 4.94 4.24 4.99 | 4.72 | 3 of 9 (5.16) |

Data: MIT Lincoln Laboratory AlphaSeq set, Engelhart et al. 2022, doi:10.1038/s41597-022-01779-4, as distributed in FLAb.